Target: T1, human GITR, membrane bound (on activated human T cells or on 3A9-hGITR cells) (UniProt Q9Y5U5 26-241)
T1 chain: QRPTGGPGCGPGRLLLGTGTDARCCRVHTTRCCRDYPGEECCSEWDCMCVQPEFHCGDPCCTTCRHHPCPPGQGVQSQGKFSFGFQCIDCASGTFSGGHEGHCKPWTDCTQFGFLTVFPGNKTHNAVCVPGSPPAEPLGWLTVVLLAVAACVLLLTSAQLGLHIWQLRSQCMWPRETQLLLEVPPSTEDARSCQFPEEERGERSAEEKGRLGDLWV
Test: FACS

B1: anti-GITR.g2.g1f (antibody)
chain 1: QVQLVESGGGVVQPGRSLRLSCAASGFTFSSYGMHWVRQAPGKGLEWVAVIWYEGSNKYYADSVKGRFTISRDNSKNTLYLQMNSLRAEDTAVYYCARGGSMVRGDYYYGMDVWGQGTTVTVSSASTKGPSVFPLAPCSRSTSESTAALGCLVKDYFPEPVTVSWNSGALTSGVHTFPAVLQSSGLYSLSSVVTVPSSNFGTQTYTCNVDHKPSNTKVDKTVERKCCVE[human IgG1 Fc not given here]
chain 2: AIQLTQSPSSLSASVGDRVTITCRASQGISSALAWYQQKPGKAPKLLIYDASSLESGVPSRFSGSGSGTDFTLTISSLQPEDFATYYCQQFNSYPYTFGQGTKLEIKRTVAAPSVFIFPPSDEQLKSGTASVVCLLNNFYPREAKVQWKVDNALQSGNSQESVTEQDSKDSTYSLSSTLTLSKADYEKHKVYACEVTHQGLSSPVTKSFNRGEC
Question: With B1 as the binder, how does the EC50 read?
Answer: 0.203 nM

B2: anti-GITR-IgG1.1f (antibody)
chain 1: QVQLVESGGGVVQPGRSLRLSCAASGFTFSSYGMHWVRQAPGKGLEWVAVIWYEGSNKYYADSVKGRFTISRDNSKNTLYLQMNSLRAEDTAVYYCARGGSMVRGDYYYGMDVWGQGTTVTVSSASTKGPSVFPLAPSSKSTSGGTAALGCLVKDYFPEPVTVSWNSGALTSGVHTFPAVLQSSGLYSLSSVVTVPSSSLGTQTYICNVNHKPSNTKVDKRVEPKSCDKTHTCPPCPAPEAEGAPSVFLFPPKPKDTLMISRTPEVTCVVVDVSHEDPEVKFNWYVDGVEVHNAKTKPREEQYNSTYRVVSVLTVLHQDWLNGKEYKCKVSNKALPSSIEKTISKAKGQPREPQVYTLPPSREEMTKNQVSLTCLVKGFYPSDIAVEWESNGQPENNYKTTPPVLDSDGSFFLYSKLTVDKSRWQQGNVFSCSVMHEALHNHYTQKSLSLSPG
chain 2: B1 chain 2
Question: With B2 as the binder, how does the EC50 read?
Answer: 0.286 nM

Source: patent US20220175921A1 (published 2022)
